For one substance, Kd results are on record in PMC9697344.

The test deals with human epidermal growth factor receptor expressed on M3-EGFR cells (human) (UniProt P00533). The experiment in a line: radioligand binding.

On to “human epidermal growth factor labeled with 125I (ligand)”, for which the Kd (usually a measure of binding affinity in units of concentration) came out at 5.3 nM.
